Source: ChEMBL document CHEMBL1817668, “Synthesis of 6-[¹⁸F]fluoro-PBR28, a novel radiotracer for imaging the TSPO 18 kDa with PET” (Bioorg Med Chem Lett, 2011)

Chains of the proteins cited; added tags and fusions are not shown.
UniProt P30536, whole entry: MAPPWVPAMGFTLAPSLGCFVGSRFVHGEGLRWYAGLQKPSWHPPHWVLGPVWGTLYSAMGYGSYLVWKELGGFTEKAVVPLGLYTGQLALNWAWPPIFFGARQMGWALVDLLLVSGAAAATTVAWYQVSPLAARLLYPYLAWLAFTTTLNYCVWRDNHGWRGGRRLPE

Target: Translocator protein (Homo sapiens, UniProt P30536)
Assay: Displacement of [3H]PK11195 from TSPO in human HEK293 mitochondrial fraction
Summary of the method: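 Ki determined by competition with [3H]PK11195 for TSPO. Sources were rat heart membrane homogenates and mitochondrial-enriched fractions of rat kidney and of HEK293 cells. Mean ± SEM of at least three independent experiments, each run in duplicate.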

Work on CCC(C)N(C)C(=O)c1cc2ccccc2c(-c2ccccc2Cl)n1 (stereo unspecified) [PK-11195] yielded a Ki of 7.11 nM.
